# Data from ChEMBL document CHEMBL3352346, “Optimization of sphingosine-1-phosphate-1 receptor agonists: effects of acidic, basic, and zwitterionic chemotypes on pharmacokinetic and pharmacodynamic profiles” (J Med Chem, 2014).
# Species: Homo sapiens
# Test: Selectivity ratio of EC50 for human S1P3R to EC50 for human S1P1R
smiles,measurement,value
CC(C)Oc1ccc(-c2nc(-c3ccc4c(c3)CCN(CCCC(=O)O)CC4)no2)cc1C#N,Ratio EC50,1000
